Results published in patent publication US20190315775A1, “MODIFIED […] AND PHARMACEUTICAL COMPOSITION HAVING SAME AS ACTIVE INGREDIENT” (KEIO UNIVERSITY, priority 2016, published 2019).
“Also recorded” adds a separate entry of the source.

Test system: various high-risk MM cells (KMM1, KMS11, KMS21, KMS26, KMS27, KMS28, KMS34, MUM24)
Test: MTT cell viability of various MM cells, PEG11(E)-TC11 vs lenalidomide (Example 9)
Assay type: cell-based, human
Conditions: including high-risk MM cells KMS11, KMS28, KMS34, 0-100 μM, 48 hours, FIG. 5B
Text: MM cell lines (KMM1, KMS11, KMS21, KMS26, KMS27, KMS28, KMS34) used herein were those established by Takemi Otsuki et al., of Kawasaki Medical School (Otsuki, T. et al., Int. J. Oncol., 15: 1205-1212, 1999).

## Nc1cccc2c1CN(C1CCC(=O)NC1=O)C2=O (stereo not shown) [lenalidomide]
  In vitro cell proliferation inhibitory activity against myeloma cells other than KMS21 and MUM24: did not exhibit in vitro cell proliferation inhibitory activity; also recorded: no in vitro cell proliferation inhibitory activity
